# Source: patent US20150246141A1, “DIAGNOSTIC AGENTS WITH ENHANCED SENSITIVITY/SPECIFICITY” (BEN-GURION UNIVERSITY OF THE NEGEV RESEARCH AND DEVELOPMENT …, priority 2012, published 2015)
# Tested on: LS-174T human colorectal adenocarcinoma
# Experiment: Murine orthotopic colorectal tumor model LS-174T, intraluminal instillation, imaging of excised colon and organs
# Assay type: in vivo, female athymic nude mice
# Details: 40 μg per mouse (0.2 mg/ml) intraluminally
# Procedure: The murine orthotopic colorectal tumor model LS-174T human colorectal adenocarcinoma cells (3×10^7 cells) were injected (600 μL) into the descending colonic wall of 13 anesthetized, female athymic nude mice, after an over night fast. […] Histopathological examination was performed on paraffin fixed colonic tissue specimens, after an H&E stain and verified that the carcinoma infiltrated within the mucosa, submucosa, and muscular layer
# Thirty days after tumor induction, aqueous solution (PBS, 0.2 mg/ml) of 9.2% of P-(AP-IR783) prepared according to Example 1 was instilled into the colon of the anesthetized mice over 20 minutes, after which colons were washed ×3 times with large volumes of PBS. The mice were sacrificed 3 hrs post treatment, their colons exteriorized, separated, cut open, spread on a transparent film with the mucosal aspects upwards, and imaged by the Odyssey® Infrared Imaging System (Li-Cor Biosciences, Lincoln, Nebr., USA.) with excitation wavelength of 780 nm and emission wavelength of 800 nm.
# [1] = images at 3 hours following washing
substance,measurement,setting,value
HPMA copolymer bearing IR783-S-Ph-COOH [P-(AP-IR783)],"accumulation in irrelevant, well perfused tissue such as the heart or in the urine",,accumulation was not found
same,"background staining in unaffected tissues and samples (e.g. heart, small bowel, urine)",[1],very little background staining
same,"staining in excised tumor colon tissue, stomach, liver, lungs and feces",[1],intense staining
